Reference: PMC13206458, “A Synergistic Inhibitor Development Strategy Against Human UDP‐Galactose‐4‐Epimerase” (Angewandte Chemie (International Ed. in English), 2026)

Legend:
GalE [1] = target: T1, GalE (Homo sapiens, UniProt Q14376); conditions: no pre-incubation period
T1 sequence (Q14376 1-348): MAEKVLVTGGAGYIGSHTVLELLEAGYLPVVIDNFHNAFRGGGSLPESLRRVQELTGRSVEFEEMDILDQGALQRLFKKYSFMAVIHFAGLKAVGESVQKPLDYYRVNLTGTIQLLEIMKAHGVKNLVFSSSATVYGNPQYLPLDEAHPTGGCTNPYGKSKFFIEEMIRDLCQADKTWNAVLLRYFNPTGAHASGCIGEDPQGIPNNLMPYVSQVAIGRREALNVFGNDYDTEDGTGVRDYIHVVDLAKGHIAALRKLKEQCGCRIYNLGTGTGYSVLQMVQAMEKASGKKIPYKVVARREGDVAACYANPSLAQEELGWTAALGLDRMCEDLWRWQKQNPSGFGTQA

GalE [2] = target: T1, GalE; experiment: Covalent fragment kinetics assay by intact-protein LCMS; format: binding; set-up: His tag (3C-cleavable; concluded from HisTrap purification and 3C cleavage) (cleaved yes); made in house; host or cells: Sf21 insect cells (baculovirus, described before) or E. coli BL21 (DE3); conditions: 100 to 1.56 µM fragment, 0.5 µM GalE
GalE [3] = target: T1, GalE; experiment: Covalent fragment site identification by tryptic digest LCMS/MS; set-up: His tag (3C-cleavable; concluded from HisTrap purification and 3C cleavage) (cleaved yes); made in house; host or cells: Sf21 insect cells (baculovirus, described before) or E. coli BL21 (DE3); conditions: 200-fold excess of compound
From the text: • Options: Optimisation of hydrogens, keep tight waters (those that make 3 or more H-bonds), optimise His, Pro, Asn, Gln, and Cys side chains.
• Options: Optimisation of formal and partial charges, protonation states (at pH 7.5) and hydrogen placement.
• Identification of the binding pocket and building of receptor maps around X0213 using the ICM virtual screening function.
• Docking of libraries from SDFiles using the ICM virtual ligand screening function, selecting a thoroughness score of 3.
• All other docking parameters kept as default, and no additional triaging was […]
WBC01 and WBC02 Covalent Fragment Site Identification Mass Spectrometry Recombinant human GalE (10 µM GalE, 25 mM HEPES, 50 mM NaCl) was first incubated with either WBC01 or WBC02 (25, 50, or 100 µM) or matched 1% (V/V) DMSO control for 24 hours at room temperature. […]
bottom plate from a 10 mM source in DMSO. […] The plate was sealed, centrifuged (1 min, 1000 rpm), incubated at 20 °C for 6 h, and 15 µL aliquots were subsequently removed and analyzed by intact protein LC-MS to confirm modification. […]

O=C(NCc1cccc(S(=O)(=O)F)c1)Nc1cc(C2CCC2)on1 [WBC10]
GalE inhibition without pre-incubation (GalE [1]): little GalE inhibition
kinact/KI (GalE [2]): 38.2 M⁻¹ s⁻¹
residue modified (GalE [3]): only Tyr211
